The source of these data is US9849116B2 (KNOPP BIOSCIENCES LLC, priority 2008, dated 2017).

Data set [1] in a line: clinical. As to conditions: human, plasma, po, 50 mg.
Data set [2] deals with minipigs. Particulars: chronic dosing, dose reduced to 50 mg/kg at month 2.

One may read the half-life as how long it takes for the measured level to halve. A higher half-life goes with slow decline.

`CCCN[C@@H]1CCc2nc(N)sc2C1` [(R)-pramipexole, (6R)-4,5,6,7-tetrahydro-N6-propyl-2,6-benzothiazole-diamine] gave a half-life in data set [1] of 6.34 ± 1.31 h. For the same compound, in data set [2], the “mortality at the 75 mg/kg level” value is given as “mortalities”.
